# Ab-95 light chain CDR variants: yeast mating affinities

From the AlphaSeq antibody data of Engelhart et al. 2022 (doi:10.1038/s41597-022-01779-4), copy in the FLAb collection.

Antigen: PDVDLGDISGINAS, a 14-residue peptide of the SARS-CoV-2 spike HR2 region.

Each scFv is VH, the linker GGGGSGGGGSGGGGS, VL, as in the parent Ab-95, and differs from it in the CDRs of the light chain only.
VH: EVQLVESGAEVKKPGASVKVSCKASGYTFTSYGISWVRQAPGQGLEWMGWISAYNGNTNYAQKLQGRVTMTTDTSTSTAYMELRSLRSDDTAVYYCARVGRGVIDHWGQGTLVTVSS
VL: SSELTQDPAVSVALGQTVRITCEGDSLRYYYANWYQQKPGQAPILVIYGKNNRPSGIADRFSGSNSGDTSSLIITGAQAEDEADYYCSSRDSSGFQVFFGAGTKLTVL

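In library AAYL52, one, two or three CDR residues were substituted; doubles and triples were drawn at random. The scFvs were displayed on barcoded MATa yeast, the peptide on MATalpha yeast. The frequency of each diploid, read from paired DNA barcodes, reflects how well the two displayed proteins bind. Scores were corrected for input abundance and mapped to Kd with protein pairs of known affinity run in the same pool. There are three technical replicates.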

Positions count from residue 1 of the parent VL; R53Y puts Y in place of R.
This list gathers variants with a substitution at F95 (VL, numbered from residue 1).
Values are apparent Kd, the geometric mean of the replicates that gave a signal; lower means stronger binding.
"not detected" means that the variant was in the library but no mating with the target was seen in any replicate; the authors take this as a sign of poor binding, and no number exists.
Three control strains display no target. For library AAYL52, 28% of the pairings with them gave a signal, with a median of 8.2 µM and one signal in twenty below 800 nM, so weak values seen in few replicates may be background.

changes,Kd (apparent),detected
R53Y/F95R,940 nM,3 of 3
N33S/D91V/F95C,2.9 µM,2 of 3
G24E/D91N/F95T,21 µM,1 of 3
S26M/K50W/F95Q,370 nM,3 of 3
D25V/D91Q/F95I,13 µM,1 of 3
S26D/N52Q/F95A,280 nM,3 of 3
Y31S/S55P/F95H,1.7 µM,2 of 3
D25C/F95A,9.4 µM,2 of 3
K50R/R53S/F95G,11 µM,3 of 3
Y31M/F95W/F98W,1.7 µM,2 of 3
D91Y/G94P/F95R,11 µM,2 of 3
R53S/R90N/F95N,740 nM,3 of 3
E23C/R90W/F95Q,not detected,0 of 3
S26N/R90Y/F95H,440 nM,1 of 3
N51G/F95I/V97H,1.3 µM,2 of 3
D25P/R53F/F95N,1.9 µM,1 of 3
D91S/F95C/F98T,4.7 µM,2 of 3
S26R/P54S/F95I,not detected,0 of 3
Y29T/N52W/F95W,2.0 µM,3 of 3
A32K/P54W/F95N,2.1 µM,1 of 3
S92F/F95L/F98H,520 nM,3 of 3
N52P/S93C/F95C,18 µM,1 of 3
Y30N/N33C/F95I,970 nM,3 of 3
S55N/S88P/F95R,not detected,0 of 3
D25N/F95M/Q96T,2.8 µM,3 of 3
N52P/S93R/F95M,5.8 µM,3 of 3
L27H/G94W/F95G,1.5 µM,3 of 3
L27Q/N52Q/F95C,2.4 µM,3 of 3
G49Y/N51H/F95P,not detected,0 of 3
R90W/F95A,230 nM,3 of 3
G49L/N52E/F95I,9.1 µM,1 of 3
D91I/S93T/F95W,200 nM,3 of 3
G24D/Y30V/F95P,17 µM,1 of 3
A32S/S88M/F95G,450 nM,3 of 3
E23Q/F95C/V97D,540 nM,3 of 3
D25H/R53H/F95T,310 nM,3 of 3
D25I/N52V/F95V,2.8 µM,3 of 3
L27D/K50Y/F95E,not detected,0 of 3
D91Q/F95T/Q96C,4.0 µM,3 of 3
S26N/A32N/F95N,560 nM,1 of 3
N52I/S93P/F95V,140 nM,3 of 3
G24Y/R28Q/F95I,650 nM,1 of 3
A32W/S88N/F95R,not detected,0 of 3
E23L/S26P/F95A,790 nM,3 of 3
R53C/S88Y/F95W,29 µM,1 of 3
N52F/S88D/F95N,not detected,0 of 3
Y30V/N33S/F95C,11 µM,2 of 3
E23D/G94A/F95I,730 nM,3 of 3
A32L/F95V/F98A,20 µM,2 of 3
Y29K/S88F/F95V,17 µM,1 of 3
S89I/S92Q/F95H,340 nM,2 of 3
G24T/F95H/F98K,2.7 µM,3 of 3
N52Y/S92Q/F95K,5.7 µM,3 of 3
D25G/R53V/F95Y,2.9 µM,3 of 3
G24W/N52P/F95T,6.1 µM,2 of 3
A32P/F95C/F98P,not detected,0 of 3
D25Q/R53Q/F95Q,not detected,0 of 3
K50R/D91I/F95V,200 nM,3 of 3
N51S/F95W/Q96W,310 nM,3 of 3
N33I/G94F/F95E,26 µM,1 of 3
S26V/A32I/F95Y,130 µM,1 of 3
G49M/P54C/F95A,not detected,0 of 3
Y30F/G49S/F95P,28 µM,2 of 3
Y30S/D91R/F95N,520 nM,3 of 3
R28I/S89E/F95T,7.0 µM,2 of 3
S26T/R90M/F95T,not detected,0 of 3
Y30N/F95V,5.2 nM,3 of 3
L27P/R53F/F95A,11 µM,1 of 3
Y30W/F95Q/V97K,4.3 µM,2 of 3
G49N/F95D,290 nM,3 of 3
L27T/F95C/F98C,not detected,0 of 3
S26N/D91Y/F95Y,30 µM,1 of 3
D25Y/Y30N/F95C,26 nM,3 of 3
G24W/F95S,not detected,0 of 3
L27T/N51M/F95R,3.2 µM,2 of 3
E23D/Y31K/F95W,170 nM,2 of 3
N33S/S89A/F95K,1.8 µM,3 of 3
G49E/N51D/F95N,12 µM,2 of 3
N51F/N52G/F95K,2.6 µM,3 of 3
Y29T/Y30L/F95G,5.9 µM,2 of 3

Picked from the list: the 10 lowest averages where every replicate gave a value.

| changes | Kd (apparent) | detected |
|---|---|---|
| Y30N/F95V | 5.2 nM | 3 of 3 |
| D25Y/Y30N/F95C | 26 nM | 3 of 3 |
| N52I/S93P/F95V | 140 nM | 3 of 3 |
| K50R/D91I/F95V | 200 nM | 3 of 3 |
| D91I/S93T/F95W | 200 nM | 3 of 3 |
| R90W/F95A | 230 nM | 3 of 3 |
| S26D/N52Q/F95A | 280 nM | 3 of 3 |
| G49N/F95D | 290 nM | 3 of 3 |
| D25H/R53H/F95T | 310 nM | 3 of 3 |
| N51S/F95W/Q96W | 310 nM | 3 of 3 |